The values below come from patent US6417222B1, “[2-substituted-5-[3-thienyl)-benzyl]-2- ([2-isopropoxy-5-fluoro]-phenyoxy)-ethyl]-amine derivatives, method for the production and use thereof as medicaments” (Pierre Fabre Medicament, priority 1999, dated 2002).

This series can be described thus: Cataleptogenic power (extrapyramidal side effects). The conditions noted are these: rat, in vivo; rats, oral administration; read-out: Catalepsy ED50. From the text:
2—Evaluation of the antagonist activity of the D2 receptors and of the cataleptogenic effects of the compounds of the invention in vivo
The test for evaluating the propensity of the products of the invention to cause side effects of extrapyramidal order is based on their cataleptogenic power, measured in rats, according to the method described in Eur. J. Pharmacol. 1996, 313, 25.

As to `Cc1nc2n(c(=O)c1CCN1CCC(c3noc4cc(F)ccc34)CC1)CCCC2` [Risperidone, reference compound], the ED50 amounted to 3.5 mg/kg.

As usually defined, the ED50 is the dose that gives a 50% effect, or the effect in half of the subjects.
